In one data set the test system is VAP-1. The experiment in a line: VAP-1 stability in dog plasma.
For the next data set, the target named is RPE65 (Bos taurus, UniProt Q28175). In words: In vitro retinol isomerase (isomerohydrolase, IMH) assay with bovine RPE microsomes.
Data set [1] in a line: Sequestration of all-trans-retinal (atRAL) in vitro. Conditions: 100 μM compound, equimolar atRAL, 30 min.

Amino acid sequences for entries named in this document (tags omitted).
UniProt Q28175, whole entry: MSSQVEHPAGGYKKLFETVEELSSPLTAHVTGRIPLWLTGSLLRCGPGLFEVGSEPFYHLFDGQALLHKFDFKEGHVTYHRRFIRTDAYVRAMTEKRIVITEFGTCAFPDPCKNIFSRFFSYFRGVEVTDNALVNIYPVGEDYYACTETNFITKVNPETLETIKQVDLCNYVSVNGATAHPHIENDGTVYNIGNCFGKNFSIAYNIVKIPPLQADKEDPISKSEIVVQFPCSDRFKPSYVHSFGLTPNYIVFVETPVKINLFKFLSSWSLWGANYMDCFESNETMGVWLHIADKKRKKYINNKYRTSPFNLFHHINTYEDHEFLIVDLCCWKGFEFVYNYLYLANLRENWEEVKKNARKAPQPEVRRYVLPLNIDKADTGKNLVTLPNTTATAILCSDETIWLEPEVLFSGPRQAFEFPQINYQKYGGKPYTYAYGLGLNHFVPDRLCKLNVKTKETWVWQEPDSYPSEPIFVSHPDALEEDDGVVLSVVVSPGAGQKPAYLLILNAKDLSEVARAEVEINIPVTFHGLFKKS

The values below come from patent US20240245647A1, “ISOMEROHYDROLASE INHIBITOR FOR TREATMENT OF ATROPHIC FORM OF AGE-RELATED MACULAR DEGENERATION AND STARGARDT DISEASE” (The Trustees of Columbia University in the City of New York, priority 2021, published 2024).

In the case of `[2H]C([2H])(N)C([2H])([2H])S(=N)(=O)c1cccc(OCC2CCCCC2)c1` (stereo not shown), in the data set with VAP-1, the “dog plasma stability, in words” value is “increased dog plasma stability”. At RPE65, the “RPE65 inhibition, in words” value is reported as “effectively inhibit”. In addition, the IC50 at RPE65 (read-out: IC50 in the primary IMH / RPE65 inhibition assay) is 60 nM. The atRAL reduction in data set [1] is given as 87%.
